Article PMC5054432 (Scientific Reports, 2016)

The chains behind the UniProt entries cited, without tags or fusion partners. Residues count along the entry.
UniProt Q01097, 27-1482: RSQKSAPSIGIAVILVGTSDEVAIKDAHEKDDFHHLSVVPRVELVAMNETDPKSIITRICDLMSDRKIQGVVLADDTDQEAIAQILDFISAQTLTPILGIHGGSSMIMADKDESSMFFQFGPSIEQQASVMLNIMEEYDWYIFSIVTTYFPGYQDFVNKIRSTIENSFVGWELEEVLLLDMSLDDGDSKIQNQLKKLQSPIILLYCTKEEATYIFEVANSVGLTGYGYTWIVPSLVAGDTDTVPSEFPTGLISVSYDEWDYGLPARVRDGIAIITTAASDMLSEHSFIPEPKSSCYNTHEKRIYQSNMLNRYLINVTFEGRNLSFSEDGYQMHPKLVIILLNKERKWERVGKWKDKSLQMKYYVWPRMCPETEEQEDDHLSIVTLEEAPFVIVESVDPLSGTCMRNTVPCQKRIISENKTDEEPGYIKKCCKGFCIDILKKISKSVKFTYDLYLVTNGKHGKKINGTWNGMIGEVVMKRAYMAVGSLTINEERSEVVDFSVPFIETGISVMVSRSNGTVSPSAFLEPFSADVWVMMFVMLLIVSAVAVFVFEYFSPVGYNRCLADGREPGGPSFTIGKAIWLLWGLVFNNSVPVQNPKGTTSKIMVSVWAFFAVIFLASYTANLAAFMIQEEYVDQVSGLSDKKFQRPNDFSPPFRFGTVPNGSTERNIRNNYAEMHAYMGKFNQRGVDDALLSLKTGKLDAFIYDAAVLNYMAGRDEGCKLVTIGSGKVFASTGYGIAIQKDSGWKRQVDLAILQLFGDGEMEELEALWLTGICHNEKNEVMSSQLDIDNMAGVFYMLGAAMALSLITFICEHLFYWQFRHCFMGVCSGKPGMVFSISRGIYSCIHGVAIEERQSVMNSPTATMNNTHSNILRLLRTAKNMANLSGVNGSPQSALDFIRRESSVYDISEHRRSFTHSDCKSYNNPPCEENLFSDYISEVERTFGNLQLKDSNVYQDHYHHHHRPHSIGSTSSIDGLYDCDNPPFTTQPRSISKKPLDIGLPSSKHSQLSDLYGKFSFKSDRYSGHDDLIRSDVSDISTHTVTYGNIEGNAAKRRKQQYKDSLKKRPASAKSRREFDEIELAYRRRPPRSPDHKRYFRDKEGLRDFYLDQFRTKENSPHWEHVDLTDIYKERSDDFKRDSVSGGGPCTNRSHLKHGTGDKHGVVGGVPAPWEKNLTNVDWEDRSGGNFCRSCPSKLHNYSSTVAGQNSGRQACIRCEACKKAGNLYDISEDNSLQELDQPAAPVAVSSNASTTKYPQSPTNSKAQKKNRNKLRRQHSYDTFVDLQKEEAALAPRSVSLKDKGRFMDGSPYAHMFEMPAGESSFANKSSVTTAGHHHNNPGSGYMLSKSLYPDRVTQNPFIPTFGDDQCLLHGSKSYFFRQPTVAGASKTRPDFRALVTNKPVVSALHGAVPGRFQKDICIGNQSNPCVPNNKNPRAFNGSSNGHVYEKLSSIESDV

Molecular target: GluN1/GluN2B-F114AzF receptors (Rattus norvegicus (GluN1-1a); Mus musculus (GluN2B), UniProt P35439+Q01097)
Assay: Ifenprodil and Zn2+ inhibition dose-response, TEVC in Xenopus laevis oocytes
Type: cell-based
Conditions: F114AzF mutant
Procedure: Oocytes were prepared and injected as described previously. Recombinant NMDARs were expressed in Xenopus laevis oocytes after nuclear injection of 36 nl of a mixture cDNAs encoding various GluN1 and GluN2 subunits (ratio 1:1, 10 ng/μl for GluN2A and 30 ng/μl for GluN2B). For Uaa incorporation, oocytes were co-injected with a 36 nl mixture of cDNAs containing GluN1, GluN2, Yam, and aaRS as follows, unless otherwise indicated in the text: GluN1-wt (60 ng/μl), GluN2A-F115AzF (60 ng/μl), Yam (5 ng/μl), AzF-RS (2.5 ng/μl); or, GluN1-wt (80 ng/μl), GluN2B-F114AzF (80 ng/μl), Yam (10 ng/μl), AzF-RS (5 ng/μl). […]
For all experiments, the standard external solutions contained: 100 mM NaCl, […] BaCl2, and 5 mM HEPES, pH adjusted to 7.3 with KOH. […] Currents were recorded and measured at a holding potential of −60 mV at room temperature.
The measurements at 30 μM were corrected by multiply with a correcting value to remove the pore blocking effect at −60 mV[49]. […] Spermine potentiation was analyzed as described earlier. […] Spermine sensitivity was assessed at pH 6.5 in order to maximize the spermine-induced potentiation. […] Each τon was then normalized to the mean τon of wt receptors measured the same day. […]

SMILES: CC(C(O)c1ccc(O)cc1)N1CCC(Cc2ccccc2)CC1 (centres unmarked) [ifenprodil]
- Ifenprodil Hill coefficient nH (after UV): 0.69
- Ifenprodil Hill coefficient nH (before UV): 1.04
